Values quoted from earlier work as cited in paper PMC6317804, “The integration of pharmacophore-based 3D QSAR modeling and virtual screening in safety profiling: A case study to identify antagonistic activities against adenosine receptor, A2A, using 1,897 known drugs” (PLoS ONE, 2019).
pIC50: −log10 of the molar value. Where two headings read alike, the source gives them in different places.

Molecular target: adenosine receptor 2A (A2A) (Homo sapiens, UniProt P29274)
Conditions: cited from earlier work

For `Cc1cc(C)n(-c2cc(NC(=O)Cc3ccc(S(C)(=O)=O)cc3)nc(-c3ccccn3)n2)n1`, the pIC50 is listed as 7.00.
For `Cc1ccccc1-n1nc(C)c(-c2ccc3nccnc3c2)c1Nc1ccccc1C(=O)O`, the pIC50 (S1 Table, compounds given as SMILES, downloaded from ChEMBL) is given as 4.30.
